The source of these data is US20120128665A1, “PRESELECTION OF SUBJECTS FOR THERAPEUTIC TREATMENT BASED ON HYPOXIC STATUS” (SYNTA PHARMACEUTICALS CORP., priority 2010, published 2012).

Amino acid sequences for entries named in this document (tags omitted). Residues count along the entry.
UniProt P09619, 33-1106, species assumed: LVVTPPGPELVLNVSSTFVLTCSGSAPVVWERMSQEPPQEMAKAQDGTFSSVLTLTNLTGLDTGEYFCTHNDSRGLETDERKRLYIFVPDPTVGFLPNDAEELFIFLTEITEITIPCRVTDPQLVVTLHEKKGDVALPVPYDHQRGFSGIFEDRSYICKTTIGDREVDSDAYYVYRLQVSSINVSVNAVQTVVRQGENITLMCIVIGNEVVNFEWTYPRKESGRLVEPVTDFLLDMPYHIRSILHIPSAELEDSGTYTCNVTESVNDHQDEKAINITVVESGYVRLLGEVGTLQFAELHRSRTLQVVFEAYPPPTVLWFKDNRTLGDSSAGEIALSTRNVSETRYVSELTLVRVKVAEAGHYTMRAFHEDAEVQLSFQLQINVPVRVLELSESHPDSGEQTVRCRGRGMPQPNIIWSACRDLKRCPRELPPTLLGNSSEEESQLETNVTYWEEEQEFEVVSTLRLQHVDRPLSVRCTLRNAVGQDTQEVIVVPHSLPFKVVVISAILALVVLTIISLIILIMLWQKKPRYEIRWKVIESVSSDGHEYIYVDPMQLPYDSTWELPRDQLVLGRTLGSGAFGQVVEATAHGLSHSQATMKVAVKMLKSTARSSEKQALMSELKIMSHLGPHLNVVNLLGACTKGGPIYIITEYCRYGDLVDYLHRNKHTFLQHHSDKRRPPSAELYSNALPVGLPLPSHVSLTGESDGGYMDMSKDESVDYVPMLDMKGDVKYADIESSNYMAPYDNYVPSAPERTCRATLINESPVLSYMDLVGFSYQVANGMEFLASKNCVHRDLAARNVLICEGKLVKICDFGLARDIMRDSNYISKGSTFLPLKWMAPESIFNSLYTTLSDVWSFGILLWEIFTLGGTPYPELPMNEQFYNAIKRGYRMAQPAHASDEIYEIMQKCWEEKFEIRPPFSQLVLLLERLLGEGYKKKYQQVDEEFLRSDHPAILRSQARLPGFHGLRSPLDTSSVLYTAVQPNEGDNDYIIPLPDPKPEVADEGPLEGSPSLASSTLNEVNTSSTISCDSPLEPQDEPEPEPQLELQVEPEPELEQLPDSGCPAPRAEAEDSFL

One test addresses PDGFR-β (Homo sapiens, UniProt P09619). The note with it: cited from earlier work.
Test [1] concerns HCT116 tumors vs 786O tumors. The experiment in a line: response of hypoxic vs non-hypoxic tumors. The test is classed as in vivo, nude mice. The note with it: doses as in the 3rd table. The method, then: A tumor model in which the tumors have relatively high and low levels of LDH5, indicating high and low levels of hypoxia, using human tumor cell lines HCT116 and 786-O was established as set forth in the previous example.
As above, HCT116 and 786-O cells were cultured and implanted into nude mice using the methods in the previous example. Tumor growth was measured using calipers. Prior to treatment with the various agents, tumors were permitted to develop in vivo until they reached approximately 150 mm^3 in volume, which typically required 2-3 weeks following implantation. Animals were randomized into treatment groups so that the average tumor volumes of each group were similar at the start of dosing.
Tumor volume was monitored throughout the course of the study, until up to about 40 days from the date of tumor implantation. The exact number of days of the study depended on a number of factors including, for example, the number of days from implantation for the tumors to reach the desired volume.

Consider Cediranib, for which, at PDGFR-β, the “ligand-induced autophosphorylation of PDGFR-β” value was “inhibited”. As to cetuximab: Anti-EGFR, in test [1], the “effectiveness at slowing tumor growth in tumors with high levels of hypoxia (HCT116) compared with low levels (786O)” value is “not found to work better”.
